According to US20240059695A1, “SUBSTITUTED IMIDAZO[1,5-b]PYRIDAZINE COMPOUNDS AS KINASE INHIBITORS AND USE THEREOF” (IMPACT THERAPEUTICS (SHANGHAI), INC, priority 2020, published 2024):

How the values were obtained:
[1] = tested on: human lung cancer NCI-H460 cell; assay: MTT proliferation assay, NCI-H460; type: cell-based; conditions: NCI-H460, 96 h, read-out: IC50 (nM), proliferation of NCI-H460 cell
Experimental: The cells were digested by trypsinase and centrifuged at 800 rpm for 5 minutes, the supernatant was discarded, and the residual was resuspended with fresh medium […]) and counted.
(§1) The cells were seeded into 96-well cell culture plate with a density of 2000/4000 cells per well and incubated overnight in a 5% CO2 incubator at 37° C. […] 5 μL diluent of each concentration was added to 120 μL of medium (25 times diluted) and mixed by shaking. The overnight cell plates were taken and the culture medium was removed, 195 μL of fresh medium was added to each well, and 5 μL of diluted medium containing the corresponding concentration of the test compound was added respectively (the final concentration of DMSO is 1%), and the culture plate was then placed in a 5% CO2 incubator at 37° C. for 4 days. After removing the original solution, 100 μL of fresh serum-free DMEM medium containing MTT (0.5 mg/mL) was added to each well, the culture was continued. […] Cell viability (%)=(ODcompound−ODbackground)/(ODDMSO−ODbackground)×100. GraphPad Prism 6.0 was used to analyze the data. The inhibitory activity of compounds on cell proliferation was plotted based on cell viability and the logarithm of compound concentration. The IC50 value was fitted by a sigmoidal dose response curve equation Y−100/(1+10^(LogC−LogIC50)), wherein C was the concentration of compound.

[2] = tested on: human colon cancer LoVo cell; assay: MTT proliferation assay, LoVo; type: cell-based; conditions: 96 h, read-out: IC50 (nM), proliferation of LoVo cell
Experimental: as §1, with “[…]” for “100 μL”, “viability (%)=(ODcompound−ODbackground)/ODDMSO−ODbackground)×100.” for “viability (%)=(ODcompound−ODbackground)/(ODDMSO−ODbackground)×100.”, “The IC5.0” for “The IC50”, “equation Y=100/(1+10^(LogC-LogIC50)),” for “equation Y−100/(1+10^(LogC−LogIC50)),”

SMILES: C[C@@H]1COCCN1c1cc(-c2ccnn2C)c2ccnc(-c3ccn[nH]3)c2n1 [BAY-1895344, reference compound]
- IC50 [1]: 22 nM
- IC50 [2]: 27.1 nM
